Amino acid sequences for entries named in this document (tags omitted). Residues count along the entry.
UniProt P22303, 32-614 limits assumed: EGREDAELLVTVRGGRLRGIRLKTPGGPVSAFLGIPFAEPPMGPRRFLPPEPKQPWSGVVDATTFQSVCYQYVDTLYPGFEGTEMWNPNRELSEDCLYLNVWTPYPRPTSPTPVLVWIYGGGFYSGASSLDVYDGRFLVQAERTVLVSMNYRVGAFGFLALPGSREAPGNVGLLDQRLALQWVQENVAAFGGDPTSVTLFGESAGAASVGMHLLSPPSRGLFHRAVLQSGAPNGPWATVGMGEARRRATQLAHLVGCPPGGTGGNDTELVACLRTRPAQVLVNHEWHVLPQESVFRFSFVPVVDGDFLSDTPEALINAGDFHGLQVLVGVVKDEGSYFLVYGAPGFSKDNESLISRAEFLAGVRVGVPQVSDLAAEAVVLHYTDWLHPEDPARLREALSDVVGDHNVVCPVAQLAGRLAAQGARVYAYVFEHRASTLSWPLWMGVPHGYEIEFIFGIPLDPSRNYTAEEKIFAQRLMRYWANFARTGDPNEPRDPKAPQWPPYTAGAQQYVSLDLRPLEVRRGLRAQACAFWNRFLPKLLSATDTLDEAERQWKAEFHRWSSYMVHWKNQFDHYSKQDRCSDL
UniProt P06276, 29-602 limits assumed: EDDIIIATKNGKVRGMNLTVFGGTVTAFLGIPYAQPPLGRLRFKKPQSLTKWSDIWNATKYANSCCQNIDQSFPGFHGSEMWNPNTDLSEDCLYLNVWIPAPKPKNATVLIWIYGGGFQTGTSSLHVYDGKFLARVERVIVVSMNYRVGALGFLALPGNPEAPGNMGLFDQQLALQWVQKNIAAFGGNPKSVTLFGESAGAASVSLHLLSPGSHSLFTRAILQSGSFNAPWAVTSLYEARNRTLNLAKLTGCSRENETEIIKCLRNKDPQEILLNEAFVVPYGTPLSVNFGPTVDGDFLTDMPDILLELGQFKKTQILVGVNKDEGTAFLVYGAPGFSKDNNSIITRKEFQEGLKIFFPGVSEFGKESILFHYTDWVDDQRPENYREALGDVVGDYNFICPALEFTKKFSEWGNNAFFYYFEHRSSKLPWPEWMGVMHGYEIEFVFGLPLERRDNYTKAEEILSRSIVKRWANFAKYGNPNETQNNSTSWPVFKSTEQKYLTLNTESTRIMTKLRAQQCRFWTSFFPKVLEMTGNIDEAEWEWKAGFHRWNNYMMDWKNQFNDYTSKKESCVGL

According to ChEMBL document CHEMBL1949498, “Nonquaternary reactivators for organophosphate-inhibited cholinesterases” (2012):

Columns and labels:
Acetylcholinesterase = Acetylcholinesterase (Homo sapiens, UniProt P22303); experiment: Inhibition of human recombinant AChE using acetylthiocholine as substrate after 1 hr by Ellman method
Cholinesterase = Cholinesterase (Homo sapiens, UniProt P06276); experiment: Inhibition of human recombinant BChE using butyrylthiocholine as substrate after 20 mins by Ellman method

Row | Structure (SMILES) | IC50 (Acetylcholinesterase) [µM] | IC50 (Cholinesterase) [µM]
1 | O/N=C/C1=NCCN1Cc1ccccc1 | 44 | 10
2 | CCCCCN1CC(C)(C)CN=C1/C=N/O | 89 | 68
3 | CCCCCN1CCCN=C1/C=N/O | 21 | 
4 | O/N=C/C1=NCCN1Cc1ccc(Cl)cc1Cl | 24 | 3.9
5 | CC(C)CC/N=C(/C=N/O)N(C)C | 17 | 66
6 | O/N=C/C1=NCCN1Cc1cc(C(F)(F)F)cc(C(F)(F)F)c1 | 85 | 
7 | CCCCN1CC(C)(C)CN=C1/C=N/O | 93 | 
8 | O/N=C/C1=NCCCN1Cc1cc(C(F)(F)F)cc(C(F)(F)F)c1 | 45 | 
9 | CCCCC/N=C(/C=N/O)N(C)C | 13 | 
10 | O/N=C/C1=NCCCN1Cc1ccccc1 | 28 | 11
11 | O/N=C/C1=NCCCN1Cc1ccc(Cl)cc1Cl | 9 | 6.3
